Sequences of proteins named here, by UniProt entry; tags and fusion partners are left off. A change or cut given only in a name is not applied to a line headed by its entry.
UniProt Q99572: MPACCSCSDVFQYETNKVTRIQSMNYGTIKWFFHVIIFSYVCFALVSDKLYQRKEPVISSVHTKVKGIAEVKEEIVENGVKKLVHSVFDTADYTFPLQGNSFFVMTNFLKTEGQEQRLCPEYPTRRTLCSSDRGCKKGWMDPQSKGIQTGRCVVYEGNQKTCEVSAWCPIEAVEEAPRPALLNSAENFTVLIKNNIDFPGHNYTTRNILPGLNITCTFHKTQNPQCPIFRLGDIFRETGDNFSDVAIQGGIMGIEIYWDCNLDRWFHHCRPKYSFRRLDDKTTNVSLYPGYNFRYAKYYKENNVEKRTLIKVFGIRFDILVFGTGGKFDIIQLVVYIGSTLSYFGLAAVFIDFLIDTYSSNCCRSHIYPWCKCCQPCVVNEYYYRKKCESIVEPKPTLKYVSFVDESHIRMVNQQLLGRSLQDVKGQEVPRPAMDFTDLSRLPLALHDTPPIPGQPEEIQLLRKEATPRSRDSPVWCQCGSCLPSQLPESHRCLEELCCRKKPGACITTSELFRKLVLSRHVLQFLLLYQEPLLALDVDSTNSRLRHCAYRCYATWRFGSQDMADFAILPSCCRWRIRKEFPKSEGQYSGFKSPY

According to ChEMBL document CHEMBL3745703 (Bioorg Med Chem Lett, 2016):

Key:
[1] = target: P2X purinoceptor 7 (Homo sapiens, UniProt Q99572); assay: Antagonist activity at human P2X7 receptor expressed in 1321N1 cells assessed as inhibition of Bz-ATP-induced Ca2+ flux after 30 mins by FLIPR assay; format: cell-based
[2] = target: T1, P2X purinoceptor 7 (Rattus norvegicus, UniProt Q64663); assay: Antagonist activity at rat P2X7 receptor expressed in 1321N1 cells assessed as inhibition of Bz-ATP-induced Ca2+ flux after 30 mins by FLIPR assay; format: cell-based
T1 sequence (Q64663 whole entry): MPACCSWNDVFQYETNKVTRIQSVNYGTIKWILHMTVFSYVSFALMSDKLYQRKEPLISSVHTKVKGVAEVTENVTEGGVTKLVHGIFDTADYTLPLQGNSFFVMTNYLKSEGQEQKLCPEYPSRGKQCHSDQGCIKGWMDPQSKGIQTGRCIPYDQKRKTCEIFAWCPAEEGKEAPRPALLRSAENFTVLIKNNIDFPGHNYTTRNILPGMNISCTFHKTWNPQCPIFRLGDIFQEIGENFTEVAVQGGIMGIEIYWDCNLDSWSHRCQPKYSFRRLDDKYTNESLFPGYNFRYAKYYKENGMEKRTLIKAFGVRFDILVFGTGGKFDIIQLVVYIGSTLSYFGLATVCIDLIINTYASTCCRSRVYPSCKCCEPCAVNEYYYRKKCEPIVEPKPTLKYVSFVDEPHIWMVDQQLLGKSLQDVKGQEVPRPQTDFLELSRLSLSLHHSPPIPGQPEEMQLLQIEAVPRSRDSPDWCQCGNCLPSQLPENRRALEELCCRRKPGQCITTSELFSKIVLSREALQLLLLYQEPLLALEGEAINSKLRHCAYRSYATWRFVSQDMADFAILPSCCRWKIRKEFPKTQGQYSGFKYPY

[3] = Extraction ratio in human liver microsomes at 1 uM; format: ADME; conditions: read-out: ERH
[4] = Selectivity ratio of IC50 for rat P2X7 receptor to IC50 for human P2X7 receptor
[5] = Extraction ratio in rat liver microsomes at 1 uM; format: ADME; conditions: read-out: ERH
[6] = Efflux ratio of apparent permeability from basolateral to apical side over apical to basolateral side in human Caco2 cells; format: ADME, cell-based; conditions: Caco-2

| SMILES | IC50 [1] | IC50 [2] | also measured |
| --- | --- | --- | --- |
| C[C@H]1Cn2c(nnc2-c2ccc(F)cc2)C(=O)N1Cc1cccc(C(F)(F)F)c1Cl | 0.2 nM | – | – |
| C[C@H]1Cn2c(nnc2-c2cnccn2)C(=O)N1Cc1cccc(C(F)(F)F)c1Cl | – | 79 nM | hepatic extraction ratio at 1 µM [3]: 0.4; Ratio IC50 [4]: 100; hepatic extraction ratio at 1 µM [5]: 0.4; efflux ratio [6]: 1.1 |
| C[C@H]1Cn2c(nnc2-c2cc[nH]n2)C(=O)N1Cc1cccc(C(F)(F)F)c1Cl | 0.6 nM | 7.1 nM | – |
| Cc1c(CN2C(=O)c3nnc(-c4cnccn4)n3C[C@@H]2C)cccc1C(F)(F)F | 3.4 nM | 506 nM | – |
| C[C@H]1Cn2c(nnc2-c2cnccn2)C(=O)N1Cc1c(Cl)cccc1Cl | 72 nM | – | – |
| CC(c1cccc(C(F)(F)F)c1Cl)N1C(=O)c2nnc(-c3cnccn3)n2C[C@@H]1C (mixture of isomers) | 65 nM | 2690 nM | – |
| C[C@H]1Cn2c(nnc2-c2cnccn2)C(=O)N1Cc1ccccc1 | 6960 nM | – | – |

Further lines, with some results ahead:

| IC50 [1] | IC50 [2] | SMILES | also measured |
| --- | --- | --- | --- |
| 0.5 nM | – | C[C@H]1Cn2c(nnc2-c2ncccn2)C(=O)N1Cc1cccc(C(F)(F)F)c1Cl | – |
| 3.8 nM | > 10000 nM | C[C@H]1Cn2c(nnc2-c2ccncn2)C(=O)N1Cc1cccc(C(F)(F)F)c1Cl | – |
| 4.3 nM | – | C[C@H]1Cn2c(nnc2-c2cncc(Cl)c2)C(=O)N1Cc1cccc(C(F)(F)F)c1Cl | – |
| – | 380 nM | C[C@H]1Cn2c(nnc2-c2ccc(F)cn2)C(=O)N1Cc1cccc(C(F)(F)F)c1Cl | – |
| 216 nM | – | C[C@H]1Cn2c(nnc2-c2cnccn2)C(=O)N1Cc1ccccc1Cl | – |
| 3.4 nM | 36 nM | CC1Cn2c(nnc2-c2cnccn2)C(=O)N1Cc1cccc(C(F)(F)F)c1Cl (stereo not drawn) | – |
| 4710 nM | – | C[C@@H]1Cn2c(nnc2-c2cnccn2)C(=O)N1Cc1cccc(C(F)(F)F)c1Cl | – |
